Measured values taken from BindingDB's records for doi:10.1016/s0014-2999(96)00840-0 (Hoechst Marion Roussel, 1996).

Chains of the proteins cited; added tags and fusions are not shown.
UniProt P14842, whole entry: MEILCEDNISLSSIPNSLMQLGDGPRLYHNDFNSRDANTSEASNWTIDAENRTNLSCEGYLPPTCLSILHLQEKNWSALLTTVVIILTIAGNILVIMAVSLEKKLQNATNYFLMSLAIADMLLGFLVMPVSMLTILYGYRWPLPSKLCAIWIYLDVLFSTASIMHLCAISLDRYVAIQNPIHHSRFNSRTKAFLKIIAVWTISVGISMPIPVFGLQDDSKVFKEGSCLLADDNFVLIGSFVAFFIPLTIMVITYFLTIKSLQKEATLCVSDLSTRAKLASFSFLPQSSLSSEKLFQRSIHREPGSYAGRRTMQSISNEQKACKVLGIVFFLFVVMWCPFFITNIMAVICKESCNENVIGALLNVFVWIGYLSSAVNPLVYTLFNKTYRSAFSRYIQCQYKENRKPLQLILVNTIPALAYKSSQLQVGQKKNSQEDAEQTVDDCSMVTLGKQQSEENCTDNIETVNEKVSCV
UniProt P18901, whole entry: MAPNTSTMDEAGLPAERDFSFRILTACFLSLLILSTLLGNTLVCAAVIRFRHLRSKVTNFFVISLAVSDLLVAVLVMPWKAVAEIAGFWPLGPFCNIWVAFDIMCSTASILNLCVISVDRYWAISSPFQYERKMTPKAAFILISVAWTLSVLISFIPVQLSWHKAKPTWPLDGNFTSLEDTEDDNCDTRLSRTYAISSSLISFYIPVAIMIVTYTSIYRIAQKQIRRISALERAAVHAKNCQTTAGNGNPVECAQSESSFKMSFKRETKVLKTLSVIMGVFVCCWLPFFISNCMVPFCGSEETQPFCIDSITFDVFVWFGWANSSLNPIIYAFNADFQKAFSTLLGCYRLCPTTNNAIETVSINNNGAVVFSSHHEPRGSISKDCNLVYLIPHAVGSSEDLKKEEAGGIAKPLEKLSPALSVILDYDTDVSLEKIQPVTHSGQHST

Key:
[1] = target: 5-hydroxytryptamine receptor 2A (Rattus norvegicus, UniProt P14842)
D(1A) dopamine receptor = D(1A) dopamine receptor (Rattus norvegicus, UniProt P18901)

Ki [1] [nM] | SMILES | Ki (D(1A) dopamine receptor) [nM]
13.3 | Cc1cc2c(s1)=Nc1ccccc1NC=2N1CCN(C)CC1 [CAS_132539-06-1] | 
 | Cc1nc2n(c(=O)c1CCN1CCC(c3noc4cc(F)ccc34)CC1)CCCC2 [3-{2-[4-(6-Fluoro-benzo[d]isoxazol-3-yl)-piperidin-1-yl]-ethyl}-2-methyl-6,7,8,9-tetrahydro-pyrido[1,2-a]pyrimidin-4-one(risperidone)] | 550
